Measured affinities in a library of Ab-14 light chain variants

From the AlphaSeq antibody data of Li et al. 2023 (doi:10.1038/s41467-023-39022-2), copy in the FLAb collection.

Antigen: PDVDLGDISGINAS, a 14-residue peptide of the SARS-CoV-2 spike HR2 region.

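Phage display of a naive human antibody library on the peptide gave the parent. These sequences belong to a second round, designed from the earlier measurements on random variants of the parent. Several design methods are mixed in this list. In AlphaSeq, yeast of one mating type display the scFv and yeast of the other type display the target. After mating in shaken culture at 30 °C for 16 h, diploids were selected and their barcode pairs sequenced. The ratio of observed to expected reads was calibrated, replicate by replicate, on BCL2-family standards whose Kd was known from biolayer interferometry. The assay was run in six technical replicates.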

Parent scFv Ab-14: VH joined to VL by a (GGGGS)3 linker. Changes lie in the light chain CDRs alone.
VH: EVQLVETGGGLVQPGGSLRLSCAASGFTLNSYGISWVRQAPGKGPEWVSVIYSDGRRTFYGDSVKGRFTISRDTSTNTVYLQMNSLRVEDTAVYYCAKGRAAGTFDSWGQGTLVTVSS
VL: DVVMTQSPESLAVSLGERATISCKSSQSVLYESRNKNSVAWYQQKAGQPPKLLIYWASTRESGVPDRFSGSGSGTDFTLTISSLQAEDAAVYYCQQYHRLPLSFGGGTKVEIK

Each variant is given by its three light chain CDRs, as the data file delimits them; those of the parent are KSSQSVLYESRNKNSVA, WASTRES, QQYHRLPLS. Values are log10 of the apparent Kd in nM; lower means stronger binding. The mean shown is taken over the replicates in which the pair was detected. A pair that was not seen in any replicate is written "nd"; this usually means weak binding, but a binder can also be missed.

mean, log10 nM | replicates with signal | CDR-L1 | CDR-L2 | CDR-L3
-0.29 | 6 of 6 | KMSKSVLFESRNKNSVA | NASTRES | QQYHRLPLS
0.60 | 6 of 6 | KSSQSELYESAAKNSVA | NAMQRMS | QQYHRLPLS
nd | 0 of 6 | KLRQSINYESRNKNSVA | WASTRES | QIRHRLPLS
1.63 | 6 of 6 | KLSMSMLMESRHKNSVA | ENSTRED | QHYHRLPLS
1.83 | 6 of 6 | KIMQSLNYEQFNVSNVA | GQETRER | QSYHRLPLS
2.47 | 5 of 6 | KISQMYRYEQQNSDSIA | EVSTRLN | QSYHRLPLS
nd | 0 of 6 | KLSISYLFESQEKNSIA | ENSTREA | QHYHRLPLS
1.36 | 6 of 6 | KQSQSWGGESRNKNSVA | HASKRES | QQYHRLPLS
0.35 | 6 of 6 | KVSMLHWYESRNKNSVA | EASTREQ | QDYHRLPLS
2.60 | 2 of 6 | KVSEFMRGLMQRKDSIA | DNVTRNN | QQYDRLPLS
1.49 | 1 of 6 | HSSLSVFYESRNKNSVA | WASTRES | QQYHRLPLS
nd | 0 of 6 | QIQGKLQHGGNQGANVA | QGVETKN | QQYYTLPLT
0.06 | 6 of 6 | ALQQLELYESRNKNSVA | NASTRED | QQYHRLPLS
0.80 | 6 of 6 | TLVQSVMGSSRTRNSVA | NAETRED | QHYHRLPLS
0.28 | 6 of 6 | KLSCSVLYDEPNSNSVA | NASTRPM | QQYHRLPLS
nd | 0 of 6 | KSSQSFLYESRNKNSVA | WAGTRES | YQYHRLPLS
0.29 | 6 of 6 | KSPQSVPYESRNKNSVA | EASTRES | QQYHRLPLS
0.63 | 6 of 6 | QFDMHEPYQGEQNASIA | GTTNRLT | QQYFKLPLS
-0.15 | 6 of 6 | HLSPSVEYESRNKNSVA | NASTRES | QQYHRLPLS
0.95 | 6 of 6 | MISQSFLIGMKAKNSVA | QTSTREQ | QQYDRLPLS
0.24 | 6 of 6 | KLPQSVEYESRNKNSVA | HASTRES | QQYHRLPLS
1.63 | 6 of 6 | KLGGEQYSSTYEMDNVA | DVNTTYE | QHYSRLPLT
nd | 0 of 6 | KSSQSDLYESRNKNSVA | WASTRES | QQYHRLKLS
2.38 | 4 of 6 | SSSQSVLYESRNKNSVA | WASTRES | QQYKRLPLS
2.52 | 6 of 6 | MLLQATMYGERNRNSVA | HASTRED | QYYHRLPLI
2.02 | 6 of 6 | KSSQSVLYESLNKNSVA | WASTRES | QQYHRLPLS
nd | 0 of 6 | MIAESVGYQSKNKNSVA | DNSTRED | QCYDRLPLS
nd | 0 of 6 | KSSQQVLYESRNKNSVA | WASTREK | QQYHSLPLS
0.68 | 6 of 6 | KLSQSVLYESRNKNSVA | AASTREV | QQYHRLPLS
0.50 | 6 of 6 | TLGDVTRMESNKVNSIA | DMSNRAD | QQYHRLPLS
-0.14 | 6 of 6 | KFSQSVLYESRNKNSVA | EASTRES | QQYHRLPLM
0.34 | 6 of 6 | KWMQSQEYESRNKNSVA | EASTREL | QQYHRLPLS
0.10 | 6 of 6 | KLSGSMLYQSRNKNNVA | EASQREQ | QSYHRLPLS
0.93 | 6 of 6 | KLSQVTHSEHRMKNSIA | EMVTREK | QQYDRLPLS
1.22 | 1 of 6 | IVSQLMMWGMHAKNSIA | EAQTRLN | QQYDRLPLF
0.98 | 6 of 6 | KLGQMTALESRNLNSVA | QMDTRES | QQYHRLPLS
-0.12 | 6 of 6 | RQSQSVLYESRNKNSVA | EASTRES | QQYHRLPLS
0.75 | 6 of 6 | MFSQSVMYGSFYRNSVA | QTSTREQ | QQYDRLPLS
0.18 | 6 of 6 | LISQSELLESRNHNSVA | DASTRMD | QQYHRLPLS
-0.12 | 6 of 6 | KLSQSVLYESRNKNSVA | EASQREE | QQYHRLPLS
0.08 | 6 of 6 | KFQQSQLYESRNKNSVA | NASTRLS | QQYHRLPLS
0.30 | 6 of 6 | MISDLTMYGSRNVYSVA | DLSTRGS | QQYHRLPLS
1.19 | 6 of 6 | LMNERMMMGENQQHNIA | NAAHLVK | QDYHRLPLG
-0.02 | 6 of 6 | KLSGSVLYESRNKNSVA | EASTRES | QQYHRLPLS
0.51 | 6 of 6 | KSSQSVYYESRNKNSVA | DASTREL | QQYHRLPLS
0.88 | 6 of 6 | HLSLRLSYGNMLQKAVA | EVQARMT | QQYARLPLL
0.48 | 6 of 6 | KLSQAVLYESRLKNSVA | WASTRES | QQYSRLPLS
0.41 | 6 of 6 | KISQSVLYESRNKNSVA | NASTRMS | QQYHRLPLS
1.60 | 5 of 6 | KSSQSVVYESRNKNSVA | RASTRES | QQCHRLPLS
1.97 | 4 of 6 | KLSISHQVESINKSNVA | EMVTREK | QQYDRLPLS
2.44 | 1 of 6 | KLMQSVLYESRNKNSVA | HASTRED | KQYHRLPLS
0.85 | 6 of 6 | KLMQSVEQLSRNKNSVA | HASLREV | QAYHRLPLS
0.00 | 6 of 6 | KLSTSVLYEQRMANAVA | AASTREE | QQYHRLPLS
-0.59 | 6 of 6 | KLSQSHLYESRNSNNVA | DASTRES | QQYHRLPLS
0.37 | 6 of 6 | MISDLMLHGSRAKNPIA | NAETREY | QQYHRLPLE
-0.32 | 6 of 6 | KLMQSNLYESRNKNSVA | NASQRES | QQYHRLPLS
0.18 | 6 of 6 | KIPQSYLGEWRNCNSVA | NASQRES | QQYHRLPLS
0.00 | 6 of 6 | KSSQSVPYESRNKNSVA | EASQRES | QQYHRLPLS
1.05 | 6 of 6 | QIGMLMNFESLKINNVA | QMETRVN | QQYDRLPLS
1.86 | 6 of 6 | TISQLYNMGQFAINSVA | QASIRNS | QQYDRLPLM
0.61 | 6 of 6 | KSSGSVEMLSRNVNNVA | EASTREL | QAYHRLPLS
-0.07 | 6 of 6 | QLGAVQDMTSKNKNSVA | EMSTREN | QQYHRLPLS
0.59 | 6 of 6 | NLVEDEGTNQTKMGNIA | SVDQRMD | QQYQRLPLI
0.65 | 6 of 6 | NLNTEYVTGTSNWNNIA | HGSMVEA | QQYFQLPIQ

5 of these entries, quoted again:

CDR-L1 | CDR-L2 | CDR-L3 | mean, log10 nM | replicates with signal
HLSPSVEYESRNKNSVA | NASTRES | QQYHRLPLS | -0.15 | 6 of 6
TISQLYNMGQFAINSVA | QASIRNS | QQYDRLPLM | 1.86 | 6 of 6
MISDLMLHGSRAKNPIA | NAETREY | QQYHRLPLE | 0.37 | 6 of 6
KSSQSVVYESRNKNSVA | RASTRES | QQCHRLPLS | 1.60 | 5 of 6
KSSQSVYYESRNKNSVA | DASTREL | QQYHRLPLS | 0.51 | 6 of 6

The range of this assay differs from that of the first round, and the authors advise against merging the two. The authors' rule: three or more of the six replicates give a measured affinity, fewer mean a poor binder. Of ten entries with the parent sequence, four were seen in most replicates (averages 0.34 to 2.37), three in one and three in none, so single entries are noisy. Background: pairings of all light chain designs with three empty control strains gave a value in 4% of cases (median 2.64, 5th percentile 1.59). Values in that range, when seen in few replicates, are hard to tell from nonspecific mating.